GALK inh: blocks human galactokinase activity. P51570. Purified GALK, Kinase-Glo residual ATP luminescence. Potency, µM (doses to about 57.5 µM), actives largely listed as inhibitors. 270,000 compounds, 0.007% hits
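Galactose (100 uM) and ATP (35 uM) were turned over by 5 nM GALK for 1 h at RT. Kinase-Glo Plus then converted the remaining ATP into a luminescent signal.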
S-ASM inh: human S-ASM enzyme inhibition; 340,000 compounds, 0.006% hits; Potency, µM (titrated, usually from 57.5 µM), most hits filed as inhibitors; P17405; placental ASM, HMU-PC fluorogenic substrate, 60 min
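Steps: dispense placental human ASM, pin compound, wait 10 min at room temperature, add HMU-PC0 substrate at 9 uM final, incubate 60 min at 37 °C, add stop solution raising pH to 10, read fluorescence.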
miR-21 reporter: raises the signal of a miR-21 reporter; Potency, µM (doses to about 38.3 µM); HeLa miR-21 FLuc reporter, luciferase, 48 h; AID 2288; 340,000 tested, under 10 active; active = well fitted rising curve with a large enough effect; inconclusive = small, poorly fitted or top-dose-only effect; inactive = no such curve, though single readings can be large or run the other way;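 further: miR-21 action dims this reporter so a rising signal means less miR-21 action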
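Using DMEM plus 10% FBS, HeLa miR-21-FLuc cells are incubated with test compounds (final up to about 40uM) for 48 hours; firefly luciferase signal is then imaged following reagent-mediated lysis.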
PI4K2A block: blocks human PI4K2A kinase activity | Q9BTU6 | purified PI4K2A, ADP-Glo luminescence, 1 h; active compounds read low | activity change, negative = inhibition, % at 76.9 µM | 420,000 compounds, 0.13% hits | AID 1346378; in the data active = activity change below about -50%; inconclusive = mostly about -30% to -49%
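Compounds are screened against recombinant PI4K2A using PI as substrate and ATP, the latter dispensed at 300 microM. Reactions run one hour at ambient temperature before ADP-Glo detection; full inhibition defined by wells lacking enzyme.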
Each line names hits and unclear results; the compound was inactive in the other large screens; ! = not active in a repeat. Only some compounds are listed: those with a hit (about 0.14% of all), similar ones and a draw of the others. Unless noted, calls come from the whole dose curve; as a rule, active = well fitted curve in the direction sought with a large enough effect; inconclusive = small, poorly fitted or top-dose-only effect, or another doubt; inactive = no such curve, though single readings can be large; an effect the other way counts as inactive or inconclusive.

CC1(C)O[C@@H]2[C@H](O1)[C@@H](CO)O[C@H]2n1cnc2c(N)ncnc21	PI4K2A block -52.3 (no result: GALK inh, miR-21 reporter)
O=c1cc2oc3cc(O)c(O)cc3c(-c3ccccc3O)c-2cc1O	none
COc1ccc(OC)c(-c2c3cc(O)c(=O)cc-3oc3cc(O)c(O)cc23)c1	PI4K2A block -50.9
CCOC(=O)C(O)c1ccccc1 (configuration not stated)	none (no result: GALK inh, S-ASM inh, miR-21 reporter)
O=C(O)c1cc(Nc2cc(Cl)c3nonc3c2[N+](=O)[O-])ccc1O	PI4K2A block -59.0
O=[N+]([O-])c1c(Nc2ccccc2O)cc(Cl)c2nonc12	miR-21 reporter inconclusive
C[C@@H](O[C@H]1OCCN(Cc2n[nH]c(=O)[nH]2)[C@H]1c1ccc(F)cc1)c1cc(C(F)(F)F)cc(C(F)(F)F)c1	none (no result: GALK inh, S-ASM inh, miR-21 reporter)
COc1cc2nc(Cl)nc(N)c2cc1OC	none (no result: GALK inh, S-ASM inh, miR-21 reporter)
CCOC(=O)Cc1nnc(Nc2ccc(C)cc2)c2ccccc12	PI4K2A block -75.4
O=C(O)[C@H](O)c1ccccc1	none (no result: GALK inh, S-ASM inh, miR-21 reporter)
COc1cc2c(C#N)c(N3CCN(c4ccccc4OC)CC3)nc(N)c2c(N)n1	PI4K2A block -54.7
COc1cc2c(C#N)c(N3CCN(C)CC3)nc(N)c2c(N)n1	none (no result: S-ASM inh, PI4K2A block)
COc1cc2c(C#N)c(N3CCCC3)nc(N)c2c(N)n1	PI4K2A block -55.4!
O=C(c1cc(O)c(O)c(O)c1)c1ccc(O)c(O)c1O	none (no result: GALK inh, S-ASM inh, miR-21 reporter)
CCOC(=O)Cc1csc(NC(=O)c2cccs2)n1	PI4K2A block -83.8
CCOC(=O)Cc1csc(NC(=O)c2ccc(Br)s2)n1	none (no result: S-ASM inh, PI4K2A block)
CCOC(=O)Cc1csc(NC(=O)c2ccoc2C)n1	PI4K2A block -50.2
O=C1Cc2cc(Cl)ccc2N1	none (no result: GALK inh, S-ASM inh, miR-21 reporter)
CN(C)[C@@H]1C(=O)C(C(=O)NCN2CCCC2)=C(O)[C@@]2(O)C(=O)C3=C(O)c4c(O)cccc4[C@@](C)(O)C3C[C@@H]12 (some centres not stated)	none (no result: GALK inh, S-ASM inh, miR-21 reporter)
CC(C)C(=O)Nc1cccc(C2CN3CCSC3=N2)c1 (configuration not stated)	none (no result: GALK inh, S-ASM inh, miR-21 reporter)
COc1cc(-c2nnn(CC(=O)NC3CCS(=O)(=O)C3)n2)ccc1OCc1ccccc1 (configuration not stated)	PI4K2A block -60.2
O=C(Cn1nnc(-c2ccc(Cl)cc2)n1)NC1CCS(=O)(=O)C1 (configuration not stated)	none (no result: GALK inh, miR-21 reporter)
CCCCC[C@H](O)C=C[C@H]1[C@H](O)CC(=O)[C@H]1CC=CCCCC(=O)O	none (no result: GALK inh, S-ASM inh, miR-21 reporter)
CCSC1=C(C#N)C(c2ccccc2OC)CC(=O)N1 (configuration not stated)	PI4K2A block -65.2
O=C(O)c1cccc2cccc(-c3c4ccc(=O)c(O)c-4oc4c(O)c(O)ccc34)c12	PI4K2A block -55.3 (no result: GALK inh, miR-21 reporter)
O=C(O)c1cccc2cc(-c3ccccc3)oc(=O)c12	none
Cc1cn([C@H]2C[C@H](F)[C@@H](CO)O2)c(=O)[nH]c1=O	none (no result: GALK inh, S-ASM inh, miR-21 reporter)
c1cncc(-c2cccnc2)c1	PI4K2A block -64.8
O=C1C(O)=C(O)C(=O)c2ccccc21	PI4K2A block -50.5 (no result: GALK inh, miR-21 reporter)
Cc1ccc(-c2ccccc2C#N)cc1	none (no result: GALK inh, S-ASM inh, miR-21 reporter)
CC(C)N(C(=O)N1CCC(c2nc(-c3ccncc3)no2)CC1)C(C)C	PI4K2A block -71.8
O=Cc1ccc2oc3nc4n(c(=O)c3c(=O)c2c1)CCCS4	PI4K2A block -61.7
O=c1c2cc(Br)cc(Br)c2oc2nc3n(c(=O)c12)CCCS3	none (no result: S-ASM inh, PI4K2A block)
COc1cc(/C=N/Nc2nncn2N)ccc1OCc1c(C)no[n+]1[O-]	none
COc1ccc(/C=N/Nc2nncn2N)cc1Br	PI4K2A block -53.6
NNC(=O)c1oc2nc(-c3ccco3)cc(-c3ccco3)c2c1N	PI4K2A block -57.1
C[C@H]1C[C@H](O)c2ccsc2S1(=O)=O	none (no result: GALK inh, S-ASM inh, miR-21 reporter)
COc1ccccc1N1CCN(CC(O)COc2cc(OC)c(OC)c(OC)c2)CC1 (configuration not stated)	none (no result: GALK inh, S-ASM inh, miR-21 reporter)
Cn1c(/C=C/c2ccccc2)nc2ccccc21	PI4K2A block -66.2
Cc1cccc(-c2nnc(SCCC(=O)O)o2)c1	miR-21 reporter inconclusive, PI4K2A block -59.7 (no result: GALK inh, S-ASM inh)
Cc1cccc(-c2nnc(SCCC(=O)N3CCOCC3)o2)c1	none
COc1ccc(/C=N/NC(=O)c2nn(-c3ccc(Cl)cc3)c(=O)c3c(N)scc23)cc1	S-ASM inh inconclusive, PI4K2A block inconclusive
COc1ccc(/C=N/NC(=O)c2nn(-c3ccccc3)c(=O)c3c(N)scc23)cc1	PI4K2A block -64.6
CC(=O)N(CC(=O)N(C)C)c1ccccc1	none (no result: GALK inh, S-ASM inh, miR-21 reporter)
N#CSCC(=O)O	none (no result: GALK inh, S-ASM inh, miR-21 reporter)
COC(=O)c1ccc(NC(=O)C(=O)c2cccn2C)cc1	PI4K2A block -81.7
